Assay: Solubility in water (HPLC, shaken 2 hours at room temperature)
Conditions: amount in 100 μl injected, purified water

## CC(=O)O[C@H]1C(=O)[C@@]2(C)[C@H]([C@H](OC(=O)c3ccccc3)[C@]3(O)C[C@H](OC(=O)[C@H](O)[C@@H](NC(=O)c4ccccc4)c4ccccc4)C(C)=C1C3(C)C)[C@]1(OC(C)=O)CO[C@@H]1C[C@@H]2O [Taxol, reference compound]
  Dissolved amount (Y) of Taxol: 0.04 μg/100 μl

Source: patent US6025385A, “Taxane derivatives and drugs containing the same” (Kabushiki Kaisha Yakult Honsha, priority 1996, dated 2000)
